Counter-ions that a name gives are not always drawn. Like-named read-outs stand apart in the source and are kept apart here.
Biological target: MELK (Homo sapiens, UniProt Q14680)
Test: Kinase assay: MELK activity, phosphorylation of FITC-labeled histone H3 peptide measured by IMAP fluorescence polarization
Assay type: biochemical
Protocol: MELK activity was determined in the presence or absence of compounds using fluorescein isothiocyanate-labeled (FITC-labeled) histone H3 peptide as a substrate. […] Test compounds were dissolved in DMSO at 12.5 mM and then serially diluted as the DMSO concentration in the assays to be 1%. […] The reaction was stopped by the addition of three fold assay volume of progressive binding solution. Following 0.5 hour incubation at room temperature, fluorescence polarization was measured by Wallac EnVision 2103 multilabel reader (PerkinElmer).

Protein sequences, listed by entry. Tags and fused reporters are not part of them. Lines headed by an entry give the natural chain unless they say otherwise; changes in a name come on top.
UniProt Q14680: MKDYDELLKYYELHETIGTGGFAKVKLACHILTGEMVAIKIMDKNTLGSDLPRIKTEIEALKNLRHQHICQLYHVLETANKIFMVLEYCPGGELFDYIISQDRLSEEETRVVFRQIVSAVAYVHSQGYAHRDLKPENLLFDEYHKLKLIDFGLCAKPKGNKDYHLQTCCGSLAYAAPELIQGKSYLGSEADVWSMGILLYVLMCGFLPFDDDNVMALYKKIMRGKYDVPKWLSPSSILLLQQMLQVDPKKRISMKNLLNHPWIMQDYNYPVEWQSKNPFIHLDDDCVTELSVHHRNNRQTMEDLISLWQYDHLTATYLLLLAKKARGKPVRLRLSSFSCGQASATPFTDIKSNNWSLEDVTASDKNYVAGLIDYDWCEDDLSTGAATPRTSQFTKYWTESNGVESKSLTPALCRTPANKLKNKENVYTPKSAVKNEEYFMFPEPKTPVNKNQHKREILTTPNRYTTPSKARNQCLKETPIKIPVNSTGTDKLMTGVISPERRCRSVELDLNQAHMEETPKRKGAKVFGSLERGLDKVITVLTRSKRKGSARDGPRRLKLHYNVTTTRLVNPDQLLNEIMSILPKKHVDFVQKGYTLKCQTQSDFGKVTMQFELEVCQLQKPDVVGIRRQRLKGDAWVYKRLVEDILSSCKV

Row | Structure (SMILES) | IC50 | other results
1 | COc1cc(-c2ccc3ncc(C(C)=O)c(Nc4ccc(CN5CCCC5)cc4)c3c2)cc(Cl)c1O [Example 419, 1-(6-(3-chloro-4-hydroxy-5-methoxyphenyl)-4-(4-(pyrrolidin-1-ylmethyl)phenylamino)quinolin-3-yl)ethanone] | – | IC50 (50 micro-M ATP, FITC-labeled histone H3 peptide substrate, IMAP fluorescence polarization): 0.0059 µM
2 | CN1CCN(Cc2ccc(-c3c(C(=O)C4CC4)cnc4ccc(-c5cc(Cl)c(O)c(Cl)c5)cc34)cc2)CC1 [Example 482, cyclopropyl(6-(3,5-dichloro-4-hydroxyphenyl)-4-(4-((4-methylpiperazin-1-yl)methyl)phenyl)quinolin-3-yl)methanone] | 0.0061 µM | –
3 | COc1cc(-c2ccc3ncc([S+](C)[O-])c(N[C@H]4CC[C@H](N)CC4)c3c2)cc(Cl)c1O (some centres unmarked) [Example 500] | 0.0049 µM | –
4 | CN1CCN(C[C@H]2CC[C@H](Nc3c(C(=O)C4CC4)cnc4ccc(-c5cc(F)c(O)c(Cl)c5)cc34)CC2)CC1 [Example 636] | 0.0098 µM | –
5 | COc1cc(-c2ccc3ncc(C(C)=O)c(Nc4ccc(CN5CCN(C)CC5)cc4)c3c2)cc(Cl)c1O [Example 653, 1-(6-(3-chloro-4-hydroxy-5-methoxyphenyl)-4-(4-((4-methylpiperazin-1-yl)methyl)phenylamino)quinolin-3-yl)ethanone] | 0.0098 µM | –
6 | CC(=O)c1cnc2ccc(-c3cc(Cl)c(O)c(Cl)c3)cc2c1N[C@H]1CC[C@H](CCN(C)C)CC1 [Example 739, 1-(6-(3,5-dichloro-4-hydroxyphenyl)-4-((trans-4-(2-(dimethylamino)ethyl)cyclohexyl)amino)quinolin-3-yl)ethanone] | 0.0032 µM | –
7 | CN(C)CCNc1ccc(Nc2c(C(=O)C3CC3)cnc3ccc(-c4cc(F)c(O)c(Cl)c4)cc23)cn1 [Example 776, (6-(3-chloro-5-fluoro-4-hydroxyphenyl)-4-(6-(2-(dimethylamino)ethylamino)pyridin-3-ylamino)quinolin-3-yl)(cyclopropyl)methanone] | 0.0027 µM | –
8 | CN(C)CCNc1ccc(Nc2c(C(=O)C3CC3)cnc3ccc(-c4cc(F)c(O)c(Cl)c4)cc23)cn1 [Example 777, (6-(3-chloro-5-fluoro-4-hydroxyphenyl)-4-(6-(2-(dimethylamino)ethylamino)pyridin-3-ylamino)quinolin-3-yl)(cyclopropyl)methanone trihydrochloride] | – | IC50 (trihydrochloride): 0.0034 µM

— US9120749B2, “Quinoline derivatives and MELK inhibitors containing the same” (ONCOTHERAPY SCIENCE, INC., priority 2010, dated 2015)
